Results: patent US9758541B2 (priority 2013, dated 2017)

Test system: MDA-MB-231 cells (non-hormone-dependent breast cancer cells)
Test: Cell proliferation assay (MTS, 72 h) on MDA-MB-231 cells
Format: cell-based
Settings: Table 4, compounds of the invention vs chlorinated analogs

Substance “5-chloro-2-ferrocenyl-1,1-bis-(4-hydroxyphenyl)-pent-1-ene” has an IC50 of 4.63 µM.
